These results are taken from ChEMBL document CHEMBL4828722, “The synthesis and bioactivity of pyrrolo[2,3-d]pyrimidine derivatives as tyrosine kinase inhibitors for NSCLC cells with EGFR mutations” (Eur J Med Chem, 2021).

Molecules are shown by their SMILES. The source made the active and inactive calls. No cut-off for these calls is given here.

Assay [1] addresses T1, Epidermal growth factor receptor (Homo sapiens, UniProt P00533). The assay can be described thus: Inhibition of […] EGFR phosphorylation at Tyr992 residue in human NCI-H1975 cells at 0.1 to 5 uM incubated for 2 hrs by immunoblotting analysis. It counts as cell-based. The conditions noted are these: dose 0.1-5 µM. (A western blot detects proteins with antibodies after separation by electrophoresis.)

Assay [2] has as its target T1, Epidermal growth factor receptor. As to the kind of experiment: Inhibition of […] EGFR phosphorylation at Tyr1068 residue in human HCC827 cells at 0.1 to 5 uM incubated for 2 hrs by immunoblotting analysis. In kind it is cell-based. The conditions noted are these: dose 0.1-5 µM.
For assay [3] the target is unchanged. As to the kind of experiment: Inhibition of wild type EGFR phosphorylation at Tyr1068 residue in human HBE cells up to 5 uM incubated for 2 hrs by immunoblotting analysis. In kind it is cell-based. The note with it: dose microM <=5, time 2.0 hrs.
In assay [4] the test system is Epidermal growth factor receptor (Homo sapiens), P00533 [C797S]. As to the kind of experiment: Inhibition of […] EGFR C797S mutant (unknown origin) at 2 nM pretreated with substrate for 10 mins followed by ATP addition measured after 60 mins by mobility shift assay relative to control.
Assay [5] concerns Epidermal growth factor receptor (Homo sapiens), P00533 [UNDEFINED MUTATION]. The assay can be described thus: Inhibition of […] EGFR Del E746/A750 mutant (unknown origin) at 2 nM pretreated with substrate for 10 mins followed by ATP addition measured after 60 mins by mobility shift assay relative to control.
Assay [6] relates to Epidermal growth factor receptor (Homo sapiens), P00533 [T790M]. The assay can be described thus: Inhibition of […] EGFR T790M mutant (unknown origin) at 2 nM pretreated with substrate for 10 mins followed by ATP addition measured after 60 mins by mobility shift assay relative to control.
Assay [7] has as its system Epidermal growth factor receptor (Homo sapiens), P00533 [L858R]. As to the kind of experiment: Inhibition of […] EGFR L858R mutant (unknown origin) at 2 nM pretreated with substrate for 10 mins followed by ATP addition measured after 60 mins by mobility shift assay relative to control.
Assay [8] concerns the target T1, Epidermal growth factor receptor. The assay can be described thus: Inhibition of […] EGFR phosphorylation at Tyr1068 residue in human NCI-H1975 cells at 0.1 to 5 uM incubated for 2 hrs by immunoblotting analysis. In kind it is cell-based. The conditions noted are these: dose 0.1-5 µM.
Assay [9] has the same target. The assay can be described thus: Inhibition of wild type EGFR phosphorylation at Tyr992 residue in human HBE cells up to 5 uM incubated for 2 hrs by immunoblotting analysis. It counts as cell-based. The note with it: dose microM <=5, time 2.0 hrs.
For assay [10] the target is unchanged. The assay can be described thus: Inhibition of […] EGFR phosphorylation at Tyr992 residue in human HCC827 cells at 0.1 to 5 uM incubated for 2 hrs by immunoblotting analysis. In kind it is cell-based. The note with it: dose 0.1-5 µM.

Usually inhibition stands for the percentage by which the read-out fell short of the control. `C=CC(=O)Nc1cccc(Oc2nc(Nc3ccc(N4CCN(C)CC4)c(F)c3)nc3[nH]ccc23)c1` [ABIVERTINIB]: the inhibition result in assay [1], in [2], in [8] and in [10] was “Active” throughout. Also, the inhibition entry in [3] and in assay [9] was “inactive” throughout. The inhibition in assay [4] was determined as 5.3%; in assay [5], 45%; in assay [6] it was 94%; in assay [7], 36%.
